This passage reports IC50 results from ChEMBL document CHEMBL1177720, “Selective hexapeptide agonists and antagonists for human complement C3a receptor” (J Med Chem, 2010).

Assay [1] addresses T1, C5a anaphylatoxin chemotactic receptor 1 (Homo sapiens, UniProt P21730).
T1 sequence (P21730 whole entry): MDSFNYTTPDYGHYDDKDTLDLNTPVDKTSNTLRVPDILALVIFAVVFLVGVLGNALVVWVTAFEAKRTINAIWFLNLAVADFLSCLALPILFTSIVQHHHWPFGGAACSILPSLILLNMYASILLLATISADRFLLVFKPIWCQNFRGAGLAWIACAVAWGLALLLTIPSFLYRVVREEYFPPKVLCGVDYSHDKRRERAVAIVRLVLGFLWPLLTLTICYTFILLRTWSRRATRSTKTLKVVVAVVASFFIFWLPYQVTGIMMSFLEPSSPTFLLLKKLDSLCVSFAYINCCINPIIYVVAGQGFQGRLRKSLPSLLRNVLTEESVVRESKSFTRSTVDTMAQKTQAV
Description: Displacement of [125I-C5a] from C5a receptor in human PBMC by scintillation counting.

Assay [2] has as its target T2, C3a anaphylatoxin chemotactic receptor (Homo sapiens, UniProt Q16581).
T2 sequence (Q16581 whole entry): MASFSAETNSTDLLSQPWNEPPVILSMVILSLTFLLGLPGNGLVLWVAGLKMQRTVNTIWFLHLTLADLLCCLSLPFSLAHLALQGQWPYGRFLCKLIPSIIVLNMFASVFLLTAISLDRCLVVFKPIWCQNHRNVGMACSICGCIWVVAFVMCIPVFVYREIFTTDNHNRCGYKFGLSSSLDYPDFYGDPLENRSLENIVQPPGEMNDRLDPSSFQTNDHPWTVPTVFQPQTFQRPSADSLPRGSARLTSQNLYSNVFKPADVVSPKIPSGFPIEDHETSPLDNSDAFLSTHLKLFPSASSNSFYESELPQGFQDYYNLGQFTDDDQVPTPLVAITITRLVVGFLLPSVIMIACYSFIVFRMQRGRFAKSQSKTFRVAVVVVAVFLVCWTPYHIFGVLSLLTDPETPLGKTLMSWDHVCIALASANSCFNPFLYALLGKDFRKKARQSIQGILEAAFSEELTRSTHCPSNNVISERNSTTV
Description: Displacement of [125I-C3a] from C3a receptor in human PBMC by scintillation counting.

With `CSCC[C@H](NC(=O)[C@@H]1CCCN1C(=O)[C@H](CCCCN)NC(=O)[C@H](Cc1ccccc1)NC(=O)[C@H](CO)NC(=O)[C@@H](N)Cc1ccc(O)cc1)C(=O)N1CCC[C@H]1C(=O)N[C@@H](CC(C)C)C(=O)N[C@H](C)C(=O)N[C@@H](CCCN=C(N)N)C(=O)O`, the results for the IC50 in assay [1] and in assay [2] were 4700 nM and 140 nM, respectively.
